# This is a selection: effects in other tests are not listed, and their absence says nothing.
# How the values were obtained:
# [1] = tested on: Tg (kdr:EGFP) zebrafish embryos; test: Analysis of vasodilation in zebrafish embryos (dorsal aorta diameter); format: in vivo; conditions: 3-dpf KDR zebrafish, 30 min; 50 μM DNIC-1b, 50 μM DNIC-2a, 200 μM SNP; control 21.2 ± 0.2
# [2] = tested on: AB (wild type) zebrafish embryos; test: Analysis of myocardial contractility and cardiac output in zebrafish embryos; format: in vivo
# WT-AB zebrafish embryos = test: Toxicity test of DNIC in zebrafish embryos; conditions: 50 μM DNIC, 200 μM SNP
# [3] = incubated 30 minutes on day 3, n = 300
substance,measurement,setting,value
sodium nitroprusside,Vessel Diameter (dorsal aorta diameter),[1],25.1±0.8 μm
same,change of short-axis diameter of the heart and ventricular volume at end diastole (ED),"[2]; 50 μM DNIC-1b, 200 μM SNP, 30 minutes",significant increase
same,Short Axis Diameter ED(Dd),"[2]; end diastole, 30 min, 50 μM DNIC-1b, 50 μM DNIC-2a, 200 μM SNP, 5 μg/mL epinephrine, control 82.2 ± 2.0",86.4 ± 1.5 μm
same,Ventricular Volume ED,"[2]; end diastole, prolate spheroid assumed, same treatments, control 0.55 ± 0.02",0.62 ± 0.06 nL
same,Short Axis Diameter ES(Ds),"[2]; end systole, 30 min, 50 μM DNIC-1b, 50 μM DNIC-2a, 200 μM SNP, 5 μg/mL epinephrine, control 70.4 ± 2.5",71.5 ± 1.7 μm
same,Ventricular Volume ES,"[2]; end systole, prolate spheroid assumed, same treatments, control 0.33 ± 0.02",0.32 ± 0.01 nL
same,Cardiac Output,"[2]; heart rate × (ED volume − ES volume), same treatments, control 25.9 ± 4.5",42.8 ± 8.2 nL/min
same,Ventricular Volume ED-ES,"[2]; same treatments, control 0.21 ± 0.02",0.30 ± 0.06 nL
same,Heart Rate,"[2]; same treatments, control 124 ± 4",143 ± 5 bpm
same,acute toxicity on zebrafish embryo,"WT-AB zebrafish embryos; 3-dpf zebrafish, 30 minutes",no acute toxicity
same,"Survival rate of zebrafish, Day 3",WT-AB zebrafish embryos; [3],100 ± 0.0%
same,"Survival rate of zebrafish, Day 4",WT-AB zebrafish embryos; [3],100 ± 0.0%
same,"Survival rate of zebrafish, Day 5",WT-AB zebrafish embryos; [3],99.2 ± 1.4%

# From patent publication US10538545B2 (priority 2017, dated 2020)
